The record followed here is patent US20040029871A1, “Pharmaceutical compounds for treating copd” (priority 2000, published 2004).

Sequences of proteins named here, by UniProt entry; tags and fusion partners are left off. Residues count along the entry.
UniProt P05164, 279-745 limits assumed: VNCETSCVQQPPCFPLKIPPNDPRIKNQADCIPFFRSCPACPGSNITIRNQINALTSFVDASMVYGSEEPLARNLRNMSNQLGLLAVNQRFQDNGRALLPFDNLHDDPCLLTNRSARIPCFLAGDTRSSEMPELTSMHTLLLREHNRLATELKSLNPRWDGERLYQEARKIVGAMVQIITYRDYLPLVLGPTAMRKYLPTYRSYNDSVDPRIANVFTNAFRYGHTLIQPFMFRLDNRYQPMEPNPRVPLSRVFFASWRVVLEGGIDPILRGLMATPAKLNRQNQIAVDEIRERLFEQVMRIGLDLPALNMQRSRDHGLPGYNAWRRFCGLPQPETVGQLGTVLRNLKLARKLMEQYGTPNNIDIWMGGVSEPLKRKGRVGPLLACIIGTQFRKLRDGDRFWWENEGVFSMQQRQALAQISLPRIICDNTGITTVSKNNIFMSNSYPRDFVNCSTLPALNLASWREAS
UniProt P05164, 165-273 limits assumed: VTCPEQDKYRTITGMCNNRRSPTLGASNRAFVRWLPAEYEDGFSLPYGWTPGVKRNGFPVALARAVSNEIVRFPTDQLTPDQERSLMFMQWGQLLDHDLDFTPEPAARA

The target in this assay is T1, human MPO (Homo sapiens, UniProt P05164).
T1 construct: purchased Planta
As to the kind of experiment: in vitro MPO assay measuring production of hypochlorus acid (HOCl). Format: biochemical. As to the method:
Here we describe an in vitro MPO assay that was developed to assess inhibition of enzyme activity. Essentially the MPO assay was designed to measure the production of hypochlorus acid (HOCl), which is the key physiological product generated by the enzyme in vivo. An outline of the assay reactions is given: [drawing 5]
Compounds were preincubated with the MPO enzyme in buffer for about 15 min prior to start of reaction with H2O2. The whole reaction was carried out at room temperatutre for 10 min in a 96-well plate. […] All test concentrations were done in duplicated with at least two separate determinations n=2, unless otherwise stated. The inhibitory concentration for a compound is presentated as pIC50, which is −log IC50.

`CCOC(=O)c1ccc(N)cc1` [Ethyl aminobenzoate]: the midpoint of inhibition, the IC50, lay at 631 nM.
